An excerpt weighted towards active compounds, which were near 2.2% of everything screened.
Nrf2 activator: activates Nrf2 signaling | AREc32 ARE-luciferase reporter (MCF7-derived line), luminescence, 24 h | Potency, µM (top dose mostly 46.1 µM), without a hit: at the top dose activation, hits mostly activators | hit rate 0.31% among 410,000; note: potency is the fitted concentration of half-maximal effect; % of control where 0% means no effect; nearly all actives have a fitted effect of over 65% in size
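AREc32_Fluc, 1000 cells/well, OPTI-MEM + 5% FBS, o/n 37 deg C 5% CO2; 23 nL cpd by pin tool, 24 hr; Steady-Glo 30 min RT, luminescence.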
Nrf2 block: Nrf2 pathway inhibition. A549 ARE-Fluc reporter, luciferase luminescence, 18-24 h. Potency, µM (series often up to 46 µM), for inactives: top-dose activity change, negative = inhibition, usual class: inhibitors. hit rate 2.1% among 360,000. AID 504444; note: potency is the fitted concentration of half-maximal effect; % is set by controls: 0 for no effect and ±100 for the full control effect; nearly all actives have a fitted effect of over 60% in size
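In this cell-based qHTS, ARE-driven firefly luciferase in A549 cells reports Nrf2 activity; the luminescent signal after BugLite lysis is the measured value, with a prior CellTiter-Fluor read for cell health.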
miR-21 reporter: miR-21 reporter, rising signal. HeLa miR-21 FLuc reporter, luciferase, 48 h. Potency, µM (highest dose often 38.3 µM), for the others: at the highest dose reporter change, positive = more light. 340,000 tested, under 10 active. AID 2288; active = well fitted rising curve with a large enough effect; inconclusive = small, poorly fitted or top-dose-only effect; inactive = no such curve, though single readings can be large or run the other way;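 further: % of control where 0% means no effect; miR-21 action dims this reporter so a rising signal means less miR-21 action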
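HeLa miR-21-FLuc reporter line, endogenous miR-21; 2000 cells/well in DMEM/10% FBS; compound titration up to ~40uM final, 48 h, 37 degree Celsius; luciferase detection reagent, 15 min lysis, CCD luminescence.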
A549 viability: counter-screen for Nrf2 inhibitors: cytotoxicity in A549 cells. A549 ARE-Fluc cells, CellTiter-Fluor viability, 18-24 h. Potency, µM (highest dose often 46 µM), without a hit: at the highest dose activity change, negative = cytotoxicity, hits mostly inhibitors. hit rate 0.16% among 390,000; note: potency is the fitted concentration of half-maximal effect; % is set by controls: 0 for no effect and ±100 for the full control effect
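Cytotoxicity counterscreen: CellTiter-Fluor fluorescence was measured in A549 ARE_Fluc cells after 18-24 h of compound exposure in a concentration series. The subsequent BugLite luminescent read reports ARE-luciferase activity.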
B2AR arrestin: recruits beta-arrestin to the human beta2-adrenergic receptor; P07550; beta-arrestin recruitment to beta2AR, cell-based reporter; Potency, µM (titrated, usually from 46.1 µM), for the others: at the highest dose activation, hits mostly activators; hit rate 0.02% among 330,000; AID 492947;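 note: potency is the fitted concentration of half-maximal effect; 0% = DMSO controls and full agonism = EC100 isoproterenol or metaproterenol; nearly all actives have a fitted effect of over 65% in size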
* hit, by the source's call; ? = inconclusive; nt = no result; [ ] = dose if it differs, or a comment. Unless noted, calls come from the whole dose curve; as a rule, active = well fitted curve in the direction sought with a large enough effect; inconclusive = small, poorly fitted or top-dose-only effect, or another doubt; inactive = no such curve, though single readings can be large; an effect the other way counts as inactive or inconclusive.

Keys: A = Nrf2 activator; B = Nrf2 block; C = miR-21 reporter; D = A549 viability; E = B2AR arrestin
> CCn1c(SCC(=O)Nc2ccc(OCc3ccccc3)cc2)nnc1-c1ccco1
  A = 0.8%; B = 14.6µM*; C = 2.5%; D = ?; E = 3.3%
> C=CCn1c(SCC(=O)Nc2cccc(S(N)(=O)=O)c2)nc2sc(C)c(C)c2c1=O
  A = 4.0%; B = 16.4µM*; C = nt; D = ?; E = 0.6%
> COCCn1c(SCc2ccc(C(=O)OC)o2)nc2ccccc2c1=O
  A = -0.8%; B = 2.2%; C = -3.0%; D = -1.1%; E = 0.5%
> Cc1ccc(NS(=O)(=O)c2ccc(-c3cc(C)no3)cc2)c(C)c1
  A = -1.0%; B = ?; C = 25.7%; D = -13.2%; E = nt
> Cc1nnc(N2CCN(c3ccccc3)CC2)c2c1nnn2Cc1ccc(F)cc1
  A = 0.0%; B = -1.9%; C = 0.0%; D = 1.3%; E = nt
> CCOC(=O)c1ccc(NC(=O)CC2C(=O)N(c3ccccc3)C(=O)N2C2CCCCC2)cc1 (centres undefined)
  A = 4.3%; B = -4.0%; C = 7.4%; D = 0.0%; E = nt
> O=C(c1ccccc1)N1CCN(c2nc(-c3cccs3)nc3ccccc23)CC1
  A = nt; B = ?; C = nt; D = -11.1%; E = nt
> COC(=O)c1ccc(NC(=O)CC2C(=O)N(c3ccc(F)cc3)C(=O)N2Cc2ccc(OC)cc2)cc1 (centres undefined)
  A = 7.2%; B = ?; C = 24.6%; D = 1.9%; E = nt
> CC(C)Oc1ccccc1NC(=O)CSc1nc2ccccc2c(=O)n1C
  A = 2.7%; B = ?; C = 22.9%; D = -0.2%; E = -0.9%
> COc1cccc(NC(=O)CSc2nc3ccccc3c(=O)n2C)c1
  A = 3.2%; B = 14.6µM*; C = 18.9%; D = -9.6%; E = -1.0%
> Cc1ccc(-n2c(SCC(=O)Nc3cccc(S(N)(=O)=O)c3)nc3ccccc32)cc1
  A = 3.2%; B = 20.6µM*; C = 18.0%; D = ?; E = 0.3%
> CC(C)Cn1c(SCC(=O)Nc2cccc(S(N)(=O)=O)c2)nc2ccccc2c1=O
  A = -0.5%; B = 20.6µM*; C = 8.2%; D = -19.8%; E = -0.1%
> CC(=O)Nc1c(C)nn(-c2ccccc2)c1N1CCC(C(=O)Nc2cccc(C(F)(F)F)c2)CC1
  A = 6.8%; B = nt; C = -0.6%; D = 6.1%; E = nt
> Cc1ccc(Cl)cc1N1CCN(C(=O)CCCn2c(=O)[nH]c3ccc(Br)cc3c2=O)CC1
  A = -0.6%; B = -26.5%[9.27 µM]; C = ?; D = -4.3%; E = nt
> Cc1ccc(S(=O)(=O)N2CCN(c3nc(-c4ccncc4)nc4ccccc34)CC2)cc1
  A = nt; B = 0.8%; C = nt; D = 1.3%; E = nt
> COc1ccc2c(c1)NC(c1ccc(Cl)cc1)=NC(c1cccs1)=N2
  A = 6.8%; B = -8.2%; C = 4.5%; D = -13.0%; E = nt
> COc1cc2c(cc1OC)C(C)N(C(=O)c1cc3c(C)cc(C)cc3[nH]1)CC2 (centres undefined)
  A = 0.2%; B = 14.6µM*; C = 22.0%; D = -6.9%; E = 0.4%
> COc1cc2c(cc1OC)C(C)N(C(=O)Nc1cc(C)cc(C)c1)CC2 (centres undefined)
  A = -0.9%; B = 0.8%; C = 20.2%; D = -8.4%; E = 0.1%
> COc1ccc(C(=O)NCCn2cc(SCc3cc(C)ccc3C)c3ccccc32)cc1
  A = 1.2%; B = 18.4µM*; C = ?; D = ?; E = nt
> COc1ccc(C(=O)NCCn2cc(SCC(=O)Nc3ccc(C)cc3)c3ccccc32)cc1
  A = -0.8%; B = nt; C = ?; D = -26.5%; E = nt
> CCCN1C(C(=O)c2ccccc2)=C(OC(=O)COc2ccc(C)cc2)c2ccccc2S1(=O)=O
  A = -1.9%; B = 18.4µM*; C = ?; D = ?; E = nt
> CCCN1C(C(=O)c2ccccc2)=C(OC(=O)COc2ccccc2)c2ccccc2S1(=O)=O
  A = -2.3%; B = 23.1µM*; C = ?; D = ?; E = nt
> CCN1C(C(=O)c2ccccc2)=C(OC(=O)c2ccc(Cl)cc2)c2ccccc2S1(=O)=O
  A = -0.9%; B = 20.6µM*; C = ?; D = ?; E = nt
> CCN1C(C(=O)c2ccccc2)=C(OC(=O)COc2ccc(C)cc2)c2ccccc2S1(=O)=O
  A = -0.9%; B = 23.1µM*; C = ?; D = ?; E = nt
> C=Cc1cc(F)c(S(=O)(=O)N2CCN(S(=O)(=O)c3ccc4c(c3)OCCO4)CC2)cc1F
  A = nt; B = -19.7%; C = nt; D = 1.2%; E = nt
> CCCS(=O)(=O)c1ncc(Cl)c(C(=O)N2CCN(c3ccc(OC)cc3)CC2)n1
  A = -6.7%; B = nt; C = ?; D = ?; E = nt
> CN(CCCN(Cc1ccc(Cl)cc1)c1ccc(Br)cn1)C(=S)NCCCc1cnc[nH]1
  A = nt; B = ?; C = nt; D = -0.4%; E = nt
> CCOC(=O)c1c(C)[nH]c(CCC(=O)Nc2c(Cl)cc(OC)cc2OC)c1C
  A = 5.9%; B = nt; C = 20.0%; D = -16.9%; E = nt
> O=C(CCCCn1c(=O)c2ccccc2n(Cc2cccc(F)c2)c1=O)NCCc1ccccc1
  A = -0.7%; B = -3.0%; C = -6.3%; D = -0.1%; E = nt

Given as labelled records: part of the list above.
Compound: CCN1C(C(=O)c2ccccc2)=C(OC(=O)c2ccc(Cl)cc2)c2ccccc2S1(=O)=O
- Nrf2 activator = -0.9%
- Nrf2 block = 20.6µM*
- miR-21 reporter = ?
- A549 viability = ?
- B2AR arrestin = nt

Compound: CCN1C(C(=O)c2ccccc2)=C(OC(=O)COc2ccc(C)cc2)c2ccccc2S1(=O)=O
- Nrf2 activator = -0.9%
- Nrf2 block = 23.1µM*
- miR-21 reporter = ?
- A549 viability = ?
- B2AR arrestin = nt

Compound: C=Cc1cc(F)c(S(=O)(=O)N2CCN(S(=O)(=O)c3ccc4c(c3)OCCO4)CC2)cc1F
- Nrf2 activator = nt
- Nrf2 block = -19.7%
- miR-21 reporter = nt
- A549 viability = 1.2%
- B2AR arrestin = nt

Screening data as filed in PubChem.
